Results published in US7160874B2, “Phenylalanine derivatives” (Ajinomoto Co., Inc., priority 1999, dated 2007).

By UniProt entry, the sequences of proteins in these tests, tags left out. Residues count along the entry.
UniProt P05556, 21-798 limits assumed: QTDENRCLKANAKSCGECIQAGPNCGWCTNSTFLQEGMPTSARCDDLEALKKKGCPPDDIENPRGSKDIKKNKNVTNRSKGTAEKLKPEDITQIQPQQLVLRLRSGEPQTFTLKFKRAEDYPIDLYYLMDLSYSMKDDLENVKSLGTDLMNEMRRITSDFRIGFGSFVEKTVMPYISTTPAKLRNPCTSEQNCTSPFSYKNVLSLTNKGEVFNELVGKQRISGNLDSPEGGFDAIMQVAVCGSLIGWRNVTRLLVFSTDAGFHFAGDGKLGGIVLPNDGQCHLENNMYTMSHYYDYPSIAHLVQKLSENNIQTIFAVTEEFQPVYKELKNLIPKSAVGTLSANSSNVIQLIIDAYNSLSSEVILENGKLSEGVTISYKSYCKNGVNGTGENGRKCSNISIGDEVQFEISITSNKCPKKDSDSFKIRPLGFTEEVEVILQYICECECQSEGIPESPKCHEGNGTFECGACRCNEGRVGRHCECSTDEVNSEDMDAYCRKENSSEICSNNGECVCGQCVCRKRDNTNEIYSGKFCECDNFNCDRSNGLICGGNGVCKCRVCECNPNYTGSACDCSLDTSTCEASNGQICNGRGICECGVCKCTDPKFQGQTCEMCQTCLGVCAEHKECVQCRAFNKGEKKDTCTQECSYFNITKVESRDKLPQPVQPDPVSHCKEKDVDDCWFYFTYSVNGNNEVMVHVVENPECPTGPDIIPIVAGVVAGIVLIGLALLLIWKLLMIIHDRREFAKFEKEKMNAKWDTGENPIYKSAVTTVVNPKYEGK
UniProt P13612, 34-1032 limits assumed: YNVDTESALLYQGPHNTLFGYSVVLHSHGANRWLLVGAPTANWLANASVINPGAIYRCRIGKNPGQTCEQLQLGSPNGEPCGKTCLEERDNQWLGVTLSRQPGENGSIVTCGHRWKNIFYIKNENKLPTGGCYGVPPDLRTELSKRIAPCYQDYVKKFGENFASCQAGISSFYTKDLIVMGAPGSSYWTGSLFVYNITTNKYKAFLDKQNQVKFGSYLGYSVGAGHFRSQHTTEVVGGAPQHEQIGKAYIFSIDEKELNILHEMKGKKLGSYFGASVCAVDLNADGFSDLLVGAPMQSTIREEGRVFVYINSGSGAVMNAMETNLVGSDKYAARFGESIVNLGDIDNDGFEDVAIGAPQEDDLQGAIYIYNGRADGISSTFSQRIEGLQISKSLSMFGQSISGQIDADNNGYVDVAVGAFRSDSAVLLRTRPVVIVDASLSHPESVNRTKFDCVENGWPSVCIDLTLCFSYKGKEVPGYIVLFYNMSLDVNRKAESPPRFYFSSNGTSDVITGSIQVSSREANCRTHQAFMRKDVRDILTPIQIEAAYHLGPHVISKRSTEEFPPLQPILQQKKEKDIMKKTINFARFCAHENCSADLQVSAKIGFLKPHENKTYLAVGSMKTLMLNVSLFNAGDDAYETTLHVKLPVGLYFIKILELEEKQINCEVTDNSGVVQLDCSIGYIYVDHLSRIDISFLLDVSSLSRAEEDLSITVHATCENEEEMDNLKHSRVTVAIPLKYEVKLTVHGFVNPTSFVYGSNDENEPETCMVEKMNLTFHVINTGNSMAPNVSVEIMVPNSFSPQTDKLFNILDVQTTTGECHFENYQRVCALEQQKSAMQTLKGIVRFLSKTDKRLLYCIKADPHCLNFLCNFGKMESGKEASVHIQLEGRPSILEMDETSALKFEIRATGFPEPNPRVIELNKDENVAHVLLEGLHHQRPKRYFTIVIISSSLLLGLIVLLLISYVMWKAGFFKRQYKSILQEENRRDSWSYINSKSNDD
UniProt P26010, 20-798 limits assumed: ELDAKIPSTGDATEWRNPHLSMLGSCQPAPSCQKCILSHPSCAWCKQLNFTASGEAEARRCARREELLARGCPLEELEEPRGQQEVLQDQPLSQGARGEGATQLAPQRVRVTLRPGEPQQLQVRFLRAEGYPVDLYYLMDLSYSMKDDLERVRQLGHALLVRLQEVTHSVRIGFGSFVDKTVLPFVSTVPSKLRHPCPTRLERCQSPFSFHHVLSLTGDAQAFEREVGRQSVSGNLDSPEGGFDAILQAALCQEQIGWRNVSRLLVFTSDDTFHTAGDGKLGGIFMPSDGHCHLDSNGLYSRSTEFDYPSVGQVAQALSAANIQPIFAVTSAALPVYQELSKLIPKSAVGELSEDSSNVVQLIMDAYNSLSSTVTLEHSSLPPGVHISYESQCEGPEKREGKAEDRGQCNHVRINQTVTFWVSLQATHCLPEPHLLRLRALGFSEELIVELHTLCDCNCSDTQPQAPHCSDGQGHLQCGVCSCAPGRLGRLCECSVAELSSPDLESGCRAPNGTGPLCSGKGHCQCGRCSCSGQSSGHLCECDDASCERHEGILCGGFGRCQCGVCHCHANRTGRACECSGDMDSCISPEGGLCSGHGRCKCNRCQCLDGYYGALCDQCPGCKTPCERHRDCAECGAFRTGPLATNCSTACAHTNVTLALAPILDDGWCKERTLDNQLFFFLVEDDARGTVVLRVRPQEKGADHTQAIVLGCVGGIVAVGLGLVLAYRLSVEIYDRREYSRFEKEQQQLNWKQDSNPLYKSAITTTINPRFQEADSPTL

How the values were obtained:
integrin α4β1 = integrin α4β1 (Homo sapiens, UniProt P05556+P13612); assay: VCAM antagonist activity (VCAM-1/α4β1 binding assay); conditions: read-out: VCAM antagonistic activity (IC50) α4β1; Jurkat cells binding to VCAM-1
Procedure: (Test Example) VCAM Antagonist Activity (VCAM-1/α4β1 Binding Assay):
The capacity of a test substance antagonistic to the binding of cell strain Jurkat (ATCC TIB-152) of human T cells, known to express integrin α4β1, to VCAM-1 was determined.
(§1) 100 μl/well of a solution (500 ng/ml) of recombinant human VCAM-1 (R & D systems) solution diluted with buffer A (0.1 M NaHCO3, pH 9.6) was added to a micro titer plate having 96 wells (Nunc Maxisorp). After the incubation at 4° C. overnight, unbound VCAM-1 was removed by washing once with PBS. After completion of the washing, a buffer (buffer B) obtained by diluting Block Ace® (Dainippon Pharmaceutical Co., Ltd.) with PBS to 1/4 concentration was added in an amount of 150 μl/well. After the incubation at room temperature for 1 hour, buffer B was removed and the plate was washed with PBS once.
Jurkat cells were washed with Dulbecco modified Eagle medium (SIGMA, hereinafter referred to as “DMEM”) twice and then incubated in DMEM containing 10 μg/ml of Calcein-AM (Wako Pure Chemical Industries, Ltd.) at 37° C. in dark place for 30 minutes to label with fluorescence. The cells were again suspended in a binding buffer (20 mM HEPES, DMEM containing 0.1% BSA).
(§2) 50 μl of a test substance of various concentrations obtained by the dilution with the binding buffer was added to the plate. Immediately thereafter, 50 μl (final volume: 100 μl/well) of the fluorescent Jurkat cells (4×10^6 cells/ml) were added thereto, and they were incubated at room temperature for 30 minutes. After the shaking on a plate shaker (IKA MTS-4) at 800 rpm for 30 seconds, the solution was immediately removed to remove the unbound cells. The fluorescence quantity of the bound cells remaining in the wells was determined with a fluorescent plate reader (Wallac 1420 ARVO multi-label counter) (filter excitation wave length: 485 nm, emission wave length: 535 nm). The fluorescent strength thus obtained is proportional to the number of Jurkat cells bound to VCAM-1 and remaining on the plate. The binding rate of each test material in various concentrations was determined while the fluorescent strength of the test material-free well was determined to be 100%. The concentration IC50 for the 50% binding inhibition was calculated.
(§3) The activities were classified into group A wherein IC50 was 0.02 μmol/l or below, group B wherein IC50 was higher than 0.02 μmol/l and not above 0.1 μmol/l, group C wherein IC50 was higher than 0.1 μmol/l and not above 2 μmol/l, and group D wherein IC50 was higher than 2 μmol/l and not above 10 μmol/l.

integrin α4β7 = integrin α4β7 (Homo sapiens, UniProt P13612+P26010); assay: VCAM antagonistic activity (VCAM-1/α4β7 binding assay); conditions: read-out: VCAM antagonistic activity (IC50) α4β7; RPMI-8866 cells binding to VCAM-1
Procedure: (Test Example) VCAM Antagonistic Activity (VCAM-1/α4β7 Binding Assay):
The capacity of a test substance antagonistic to the binding of lymphoma cell strain RPMI-8866 of human B cells, known to express integrin α4β7, to VCAM-1 was determined.
as §1
RPMI-8866 cells were incubated in Dulbecco modified Eagle medium containing 10 μg/ml of Calcein-AM (Wako Pure Chemical Industries, Ltd.) (SIGMA, hereinafter referred to as “DMEM”) at 37° C. for 30 minutes to label with fluorescence. The cells were again suspended in a binding buffer (20 mM HEPES, DMEM containing 0.1% BSA) containing 4 mM of MnCl2.
as §2, with “RPMI-8866” for “Jurkat”
as §3

SMILES	IC50 (integrin α4β1)	IC50 (integrin α4β7)
CCC(CC)(C(=O)N[C@@H](Cc1ccc(OCc2c(Cl)cccc2Cl)cc1)C(=O)O)C(=O)N1C(C)COCC1C (stereo partly drawn)	100 to 2000 nM	20 to 100 nM
CCC(CC)(C(=O)N[C@@H](Cc1ccc(OCc2c(Cl)cccc2Cl)cc1)C(=O)O)C(=O)N1CC2CC1CS2 (stereo partly drawn)	100 to 2000 nM	< 20 nM
CCC(CC)(C(=O)N[C@@H](Cc1ccc(OCc2c(Cl)cccc2Cl)cc1)C(=O)O)C(=O)N1C[C@H](O)C[C@@H]1C(N)=O	20 to 100 nM	< 20 nM
CCC(CC)(C(=O)N[C@@H](Cc1ccc(OCc2c(Cl)cccc2Cl)cc1)C(=O)O)C(=O)N1C[C@H](O)C[C@@H]1C(=O)OC	20 to 100 nM	< 20 nM
CCC(CC)(C(=O)N[C@@H](Cc1ccc(OCc2c(Cl)cccc2Cl)cc1)C(=O)O)C(=O)N1C[C@H](O)C[C@H]1C(N)=O	20 to 100 nM	< 20 nM
CCC(CC)(C(=O)N[C@@H](Cc1ccc(OCc2c(Cl)cccc2Cl)cc1)C(=O)O)C(=O)N1CC2CC1CO2 (stereo partly drawn)	100 to 2000 nM	< 20 nM

Next, values leading:

IC50 (integrin α4β1)	IC50 (integrin α4β7)	SMILES
100 to 2000 nM	20 to 100 nM	CCC(CC)(C(=O)N[C@@H](Cc1ccc(OCc2c(Cl)cccc2Cl)cc1)C(=O)O)C(=O)N1CC=CC1
100 to 2000 nM	< 20 nM	CCC(CC)(C(=O)N[C@@H](Cc1ccc(OCc2c(Cl)cccc2Cl)cc1)C(=O)O)C(=O)N1CCCN(C(C)=O)CC1
20 to 100 nM	< 20 nM	CCC(CC)(C(=O)N[C@@H](Cc1ccc(OCc2c(Cl)cccc2Cl)cc1)C(=O)O)C(=O)N1C[C@@H]2C[C@H]1CN2
